# Assay results published in EP4098274A1.
# pKd: −log10 of the molar value.
# Legend:
# [1] = target: cation-independent mannose-6-phosphate receptor (CIMPR); experiment: M6P receptor (CIMPR) plate binding assay, bound rhGAA read by GAA activity
# [2] = target: cation-independent mannose-6-phosphate receptor (CIMPR); experiment: CIMPR affinity chromatography of different production batches
# [3] = target: cation-independent mannose-6-phosphate receptor (CIMPR); experiment: CIMPR affinity chromatography, elution with free M6P gradient, fractions read by GAA activity (4MU-α-glucose)
pKd [1],percent CIMPR receptor binding [2] [%],"percent of rhGAA bound (contained M6P, eluted with M6P) [3] [%]",percent of rhGAA that did not bind [3] [%],Substance
8.40 to 8.70,70,–,–,ATB200 rhGAA (recombinant human acid α-glucosidase expressed in CHO cell line GA-ATB-200) (from UniProt P10253 57-952) (enzyme)
–,–,22,78,"Lumizyme® (alglucosidase alfa, conventional rhGAA, Genzyme) (from UniProt P10253 57-952)"
–,–,27,73,"Myozyme® (alglucosidase alfa, conventional rhGAA, Genzyme) (from UniProt P10253 57-952)"
